These are literature values, as cited in patent US8168800B2, “Aβ-binding small molecules” (The Regents of the University of California, priority 2007, dated 2012).

Amino acid sequences for entries named in this document (tags omitted). Residues count along the entry.
UniProt P05067, 672-713 limits assumed: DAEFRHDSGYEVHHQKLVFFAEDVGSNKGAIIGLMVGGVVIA

This data set deals with T1, Aβ oligomers (biotinylated AβO from Aβ1-42 peptide) (Homo sapiens, UniProt P05067).
T1 construct: prepared by mixing a 1:10 ratio of biotinylated and unbiotinylated Aβ1-42 peptide
Conditions: from Maezawa et al. J. Neurochem. 2007; read-out: calculated binding affinity (KD); cited from earlier work.

`Cc1ccc2c(c1)sc(-c1ccc(N(C)C)cc1)[n+]2C` [Thioflavin T]: the Kd is 0.498 µM.

As a reminder, the Kd is the free concentration of one partner at which half of the binding sites on the other are occupied at equilibrium, for simple one-to-one binding.
